Data on 7 molecules can be found in US9212165B2, “Bicarbocyclic and tricarbocyclic ethynyl derivatives and uses of same” (H. Lundbeck A/S, priority 2011, dated 2015).

Chains of the proteins cited; added tags and fusions are not shown. Residues count along the entry.
UniProt P41594, 21-1212: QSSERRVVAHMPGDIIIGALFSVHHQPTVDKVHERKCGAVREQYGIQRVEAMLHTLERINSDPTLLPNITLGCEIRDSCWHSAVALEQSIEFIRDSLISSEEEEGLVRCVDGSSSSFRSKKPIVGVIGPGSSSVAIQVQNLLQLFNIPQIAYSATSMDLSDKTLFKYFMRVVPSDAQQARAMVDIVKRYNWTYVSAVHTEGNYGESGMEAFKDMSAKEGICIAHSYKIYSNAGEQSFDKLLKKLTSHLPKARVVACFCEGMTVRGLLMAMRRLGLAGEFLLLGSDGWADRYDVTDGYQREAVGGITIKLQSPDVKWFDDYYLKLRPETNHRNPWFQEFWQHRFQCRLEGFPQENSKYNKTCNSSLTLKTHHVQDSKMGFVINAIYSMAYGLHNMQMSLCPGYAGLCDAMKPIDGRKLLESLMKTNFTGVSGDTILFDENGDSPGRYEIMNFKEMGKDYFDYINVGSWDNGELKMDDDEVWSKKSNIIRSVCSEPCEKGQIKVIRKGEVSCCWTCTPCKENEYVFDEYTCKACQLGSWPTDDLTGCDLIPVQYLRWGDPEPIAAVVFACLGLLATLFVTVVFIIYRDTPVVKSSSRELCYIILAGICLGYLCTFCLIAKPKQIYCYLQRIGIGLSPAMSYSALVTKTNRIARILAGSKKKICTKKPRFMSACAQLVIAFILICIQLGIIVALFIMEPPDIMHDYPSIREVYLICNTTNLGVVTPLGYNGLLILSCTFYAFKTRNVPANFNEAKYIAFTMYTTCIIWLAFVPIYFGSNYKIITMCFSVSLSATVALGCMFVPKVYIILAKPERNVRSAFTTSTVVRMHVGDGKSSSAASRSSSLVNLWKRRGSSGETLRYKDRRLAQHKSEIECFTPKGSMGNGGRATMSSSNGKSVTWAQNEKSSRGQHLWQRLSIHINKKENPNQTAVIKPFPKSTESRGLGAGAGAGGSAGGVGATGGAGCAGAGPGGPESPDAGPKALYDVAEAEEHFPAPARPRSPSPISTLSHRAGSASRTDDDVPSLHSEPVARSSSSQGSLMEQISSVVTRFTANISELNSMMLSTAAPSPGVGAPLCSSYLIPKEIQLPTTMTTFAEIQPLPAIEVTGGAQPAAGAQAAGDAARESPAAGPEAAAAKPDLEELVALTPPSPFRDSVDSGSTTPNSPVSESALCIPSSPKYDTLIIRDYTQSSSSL

In general, Ki refers to a measure of affinity in units of concentration, obtained from inhibition or displacement. A low value points to higher affinity. One may read the IC50 as the concentration at which inhibition is half-maximal.

The target in test [1] is mGluR5 (MPEP binding site) (Homo sapiens (Human), UniProt P41594). Description: Radioligand binding assay (MPEP site radioligand, membrane filtration). To be noted: 5 nM radioligand binding to MPEP site; Cheng-Prusoff. As for the experimental part: Binding assays were performed as described in [J. A. O'Brien et al. Mol Pharmacol., 2003, 64, 731-740] with slight modifications, including that a radioligand that binds to the […] (MPEP) binding site was used in place of [^3H] MPEP. Briefly, after thawing, the membrane homogenates were resuspended in 50 mM Tris-HCl and 0.9% NaCl binding buffer at pH 7.4 to a final assay concentration of 20 μg protein/well for radioligand filtration binding. Incubations included 5 nM radioligand, membranes and either buffer or varying concentrations of compound. Samples were incubated for 60 min at room temperature with shaking. Non-specific binding was defined with 10 μM cold MPEP when using the radioligand. After incubation, samples were filtered over a GF/C filter (presoaked in 0.25% polyethyleneimine (PEI)) and then washed 4 times using a Tomtec® Harvester 96® Mach III cell harvester (Tomtec, Hamden, Conn.) with 0.5 mL ice-cold 50 mM Tris-HCl (pH 7.4).
IC50 values were derived from the inhibition curve and Ki values were calculated according to the Cheng and Prusoff equation of Ki=IC50/(1+[L]/Kd) described in [Y. Cheng and W. H. Prusoff Biochem. Pharmacal. 1973, 22, 3099-3108] where [L] is the concentration of radioligand and Kd is its dissociation constant at the receptor, derived from the saturation isotherm. […]

The target of test [2] is rmGluR5 or hmGluR5 stably expressed in HEK 293 cell line (Homo sapiens, UniProt P41594). Description: Calcium mobilization assay (FLIPR) for negative allosteric activity. Format: cell-based, rat or human. To be noted: inhibition of EC80 glutamate response (NAM mode); read-out: FLIPR functional IC50. As for the experimental part:
Laser excitation energy was adjusted so that basal fluorescence readings were approximately 10,000 relative fluorescent units. […] Maximum change in fluorescence was calculated for each well. Concentration-response curves derived from the maximum change in fluorescence were analyzed by nonlinear regression (Hill equation).
(A change in cytosolic calcium serves as a functional read-out for many receptors and channels.)

The structures appear in SMILES notation.

`O=C(N[C@]12CCC[C@](C#Cc3ccccn3)(CC1)C2)c1ccccn1` [Example 16, N-((1R,5S)-5-(pyridin-2-ylethynyl)bicyclo[3.2.1]octan-1-yl)picolinamide]: the Ki in test [1] came to 4.5 nM. The 50% inhibitory concentration (IC50) in test [2] stood at 1.6 nM. Regarding `O=C(N[C@]12CCC[C@](C#Cc3ccccn3)(CC1)C2)c1cnccn1` [Example 17], in test [2], the IC50 was 6.6 nM. `O=C(N[C@]12CCC[C@](C#Cc3ccccn3)(CC1)C2)c1ncccc1F` [Example 23, 3-fluoro-N-((1R,5S)-5-(pyridin-2-ylethynyl)bicyclo[3.2.1]octan-1-yl)picolinamide]: the IC50 in test [2] is 11 nM.

With `O=C(N[C@@]12CCC[C@@](C#Cc3ccccn3)(CC1)C2)c1ccccn1` [Example 26, N-((1S,5R)-5-(pyridin-2-ylethynyl)bicyclo[3.2.1]octan-1-yl)picolinamide], in test [1], the Ki came out at 22 nM. In addition, the half-maximal inhibitory concentration (IC50) in test [2] was 5.9 nM.

As to `Cn1ccc(C(=O)N[C@@]23CCC[C@@](C#Cc4ccccn4)(CC2)C3)n1` [Example 32, 1-methyl-N-((1S,5R)-5-(pyridin-2-ylethynyl)bicyclo[3.2.1]octan-1-yl)-1H-pyrazole-3-carboxamide], in test [2], the IC50 came out at 17 nM. With `Cc1nc(C(=O)N[C@]23CCC[C@](C#Cc4cnccn4)(CC2)C3)cs1` [Example 46, 2-methyl-N-((1R,5S)-5-(pyrazin-2-ylethynyl)bicyclo[3.2.1]octan-1-yl)thiazole-4-carboxamide], in test [2], the IC50 came out at 12 nM.

As for `Cc1nc(C(=O)N[C@@]23CCC[C@@](C#Cc4cnccn4)(CC2)C3)cs1` [Example 51, 2-methyl-N-((1S,5R)-5-(pyrazin-2-ylethynyl)bicyclo[3.2.1]octan-1-yl)thiazole-4-carboxamide], the IC50 in test [2] is 83 nM.
